The results in this text go back to PubChem BioAssay AID602143 (Vanderbilt Specialized Chemistry Center, 2011).

Protein sequences, listed by entry. Tags and fused reporters are not part of them.
UniProt O14939, whole entry, looked up: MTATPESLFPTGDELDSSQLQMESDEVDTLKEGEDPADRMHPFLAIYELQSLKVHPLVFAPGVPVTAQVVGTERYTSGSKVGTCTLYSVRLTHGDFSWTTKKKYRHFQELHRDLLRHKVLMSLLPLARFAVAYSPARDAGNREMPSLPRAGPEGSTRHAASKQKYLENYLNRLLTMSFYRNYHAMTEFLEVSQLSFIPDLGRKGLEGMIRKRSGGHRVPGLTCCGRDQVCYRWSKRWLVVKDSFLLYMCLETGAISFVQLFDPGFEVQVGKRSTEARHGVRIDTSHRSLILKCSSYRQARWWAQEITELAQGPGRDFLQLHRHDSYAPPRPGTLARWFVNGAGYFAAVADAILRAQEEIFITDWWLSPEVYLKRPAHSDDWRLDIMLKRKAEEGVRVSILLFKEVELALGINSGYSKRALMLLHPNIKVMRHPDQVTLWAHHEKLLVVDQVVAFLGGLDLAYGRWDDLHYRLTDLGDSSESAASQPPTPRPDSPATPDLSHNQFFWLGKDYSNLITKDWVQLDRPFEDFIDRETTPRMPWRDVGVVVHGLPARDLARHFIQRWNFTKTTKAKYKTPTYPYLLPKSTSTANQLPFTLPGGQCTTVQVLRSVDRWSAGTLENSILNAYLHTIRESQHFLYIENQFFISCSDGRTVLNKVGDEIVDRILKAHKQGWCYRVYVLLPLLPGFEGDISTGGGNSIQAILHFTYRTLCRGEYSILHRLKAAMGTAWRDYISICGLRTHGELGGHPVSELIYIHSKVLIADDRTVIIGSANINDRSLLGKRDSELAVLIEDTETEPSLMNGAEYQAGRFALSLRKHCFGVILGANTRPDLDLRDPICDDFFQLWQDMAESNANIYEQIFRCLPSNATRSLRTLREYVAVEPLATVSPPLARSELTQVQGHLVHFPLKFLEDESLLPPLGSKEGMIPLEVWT

The target in this assay is Phospholipase D2 (Homo sapiens) (UniProt O14939). Kind of assay: cellular phospholipase D2 activity inhibition – cell-based, HEK293, single concentration (AID 602143).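 Further: tested at 200 nM.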 The conditions noted are these: HEK293 cellular PLD2 activity, percent of control; active compounds read low.

Only a part is listed here, and it is no random draw. Active and inactive are the calls of the source. No stated cut-off is given here; in the data, active means remaining activity below about 50%; inactive means the rest.

In the case of `O=C(CN1CCC(n2c(=O)[nH]c3ccccc32)CC1)c1ccccc1`, the remaining activity is inactive: 97.8%.
